# Antibody variant affinities, Ab-14 light chain, assay 1

Source: Engelhart et al. 2022 (doi:10.1038/s41597-022-01779-4), MIT Lincoln Laboratory and A-Alpha Bio; data file from the FLAb repository.

Target peptide (SARS-CoV-2 spike, HR2 region): PDVDLGDISGINAS

The variants keep the heavy chain, the linker and the frameworks of Ab-14 (scFv order VH, three GGGGS repeats, VL).
VH: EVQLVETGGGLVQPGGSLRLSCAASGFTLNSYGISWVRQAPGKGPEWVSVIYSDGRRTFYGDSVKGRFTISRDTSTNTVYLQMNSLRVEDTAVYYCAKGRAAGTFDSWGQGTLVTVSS
VL: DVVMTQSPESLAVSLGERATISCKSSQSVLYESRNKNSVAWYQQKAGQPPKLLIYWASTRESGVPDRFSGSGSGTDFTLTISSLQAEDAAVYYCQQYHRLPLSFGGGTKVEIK

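Phage display of a naive human antibody library on the peptide gave the parent. In library AAYL50, one, two or three CDR residues were substituted; doubles and triples were drawn at random. In AlphaSeq, yeast of one mating type display the scFv and yeast of the other type display the target. Pairs that bind mate more often; barcode pairs of the diploids are counted by sequencing. Scores were corrected for input abundance and mapped to Kd with protein pairs of known affinity run in the same pool. Mating was done three times.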

Variants are written as CDR1, CDR2 and CDR3 of the light chain (limits as in the source). Parent: KSSQSVLYESRNKNSVA, WASTRES, QQYHRLPLS.
The read-out is the apparent dissociation constant on a log10 scale (nM): the lower, the stronger.
The mean shown is taken over the replicates in which the pair was detected.
An entry "ND" has no value in the source: the pair was not observed among the diploids in that replicate. This suggests poor binding but is not conclusive.
Background: pairings of library AAYL50 with three empty control strains gave a value in 18% of cases (median 4.19, 5th percentile 2.99). Values in that range, when seen in few replicates, are hard to tell from nonspecific mating. The control count says in how many pairings with the empty strains this scFv gave a signal, with their mean in brackets.
Parent in this assay: reference entry 0.65, copy in this library 1.68.

| CDR-L1 | CDR-L2 | CDR-L3 | log10 Kd (nM) by replicate | mean, log10 nM | empty controls |
|---|---|---|---|---|---|
| KSSQSNLYESRPKWSVA | WASTRES | QQYHRLPLS | ND 3.71 ND | 3.71 | 2 of 9 (3.55) |
| KSSSSVLGESRNKNSVA | WASTRES | QQAHRLPLS | 1.94 2.20 2.16 | 2.10 | 0 of 9 |
| KSSQSVLYESRNKISVA | WASTREA | QQVHRLPLS | ND 3.20 ND | 3.20 | 1 of 9 (3.69) |
| KSSQSVVYESRNKNSGA | WASTRES | QQPHRLPLS | ND 4.40 ND | 4.40 | 5 of 9 (4.49) |
| KGSSSVLYESRNDNSVA | WASTRES | QQYHRLPLS | 0.93 1.28 1.27 | 1.16 | 3 of 9 (4.10) |
| KSSISVLYESRNKNSFA | WASTRES | QQYHRLRLS | ND ND ND | ND | 0 of 9 |
| KSSQSVPYEKRNKNSVA | WASTRES | QAYHRLPLS | 3.72 1.71 ND | 2.71 | 0 of 9 |
| KSSQSVLYESRNKNSVI | WASTRES | QQYHRLPCW | 5.46 ND ND | 5.46 | 4 of 9 (4.05) |
| KSSSSVLYESRNKNSVA | WAKTRES | QQYHRLPMS | ND ND ND | ND | 0 of 9 |
| TSSQSVLYESYNKVSVA | WASTRES | QQYHRLPLS | 3.74 3.39 3.85 | 3.66 | 2 of 9 (4.19) |
| KSSQSVLYVQRNKNSVA | WASHRES | QQYHRLPLS | 2.15 2.61 3.66 | 2.81 | 2 of 9 (2.91) |
| KSSQSVLYESRNKFSVA | GASERES | QQYHRLPLS | 0.43 0.81 0.26 | 0.50 | 1 of 9 (2.71) |
| KSSQSVLYESRNKNSVA | MASTMES | QQYPRLPLS | ND ND ND | ND | 1 of 9 (2.78) |
| KSSQSVLYESRNKNRVA | WASTREL | QMYHRLPLS | ND 5.09 ND | 5.09 | 3 of 9 (4.39) |
| KSSWSVLYESFNKNSVA | WASTREL | QQYHRLPLS | 0.96 1.13 1.01 | 1.03 | 0 of 9 |
| KSSQSVLYESRNHNSVA | DASTRES | QQYHGLPLS | -0.20 0.14 -0.03 | -0.03 | 6 of 9 (5.13) |
| KSSQSVLYESQNKNSVA | WASTREA | QSYHRLPLS | ND 3.51 ND | 3.51 | 2 of 9 (4.29) |
| KSSQSVLYESRNQASVA | WASTRES | QQYHRLPCS | 3.97 ND ND | 3.97 | 2 of 9 (3.13) |
| KSSQSVLYESRNKNSVN | QASTRES | QQYHRLNLS | ND ND ND | ND | 0 of 9 |
| KSSQSVLYESRNKNNVA | WHSTRES | QQYHRFPLS | ND 4.73 ND | 4.73 | 1 of 9 (4.39) |
| KSSQSVLYEDRNKNSVA | WASTRES | CQYHRLPLS | ND ND ND | ND | 1 of 9 (3.77) |
| KSSQSVGYESRNKNSAA | WASTRES | QQYHRLPSS | ND 4.71 ND | 4.71 | 2 of 9 (4.57) |
| KMSQSVLYESRNKNSVA | TASTRES | QQYHRLPLS | 1.80 1.81 2.19 | 1.94 | 1 of 9 (4.52) |
| KSSQAVLHESRNKNSVA | WASTRES | QQMHRLPLS | ND ND ND | ND | 2 of 9 (4.45) |
| KSSQSVLYEARNKNSSA | WASTRES | QQYHRLYLS | ND ND 6.05 | 6.05 | 2 of 9 (4.31) |
| KSSQSVLYESRNSNSVA | HASTRES | QQYHRSPLS | 4.29 3.81 3.31 | 3.80 | 1 of 9 (3.52) |
| KSSQSVQGESRNKNSLA | WASTRES | QQYHRLPLS | 0.72 0.77 0.70 | 0.73 | 1 of 9 (3.83) |
| KVSQSVLYESRNKNSVA | WASHRES | QQYHWLPLS | 0.69 0.85 0.92 | 0.82 | 0 of 9 |
| KSSQSVLYESRNKNSVA | YSSTRES | QQYHRLPMS | 2.06 2.23 3.81 | 2.70 | 1 of 9 (3.41) |
| KSSQSVLYEDRNKNSVD | WNSTRES | QQYHRLPLS | 2.75 ND ND | 2.75 | 0 of 9 |
| KSFQSVLYESRNKNSVA | WASTREH | QQYHRLPLT | 2.26 2.43 2.31 | 2.33 | 2 of 9 (4.40) |
| KYSQSVLYESRNKNSVA | WASTRES | QQHHRLPLN | 1.63 ND ND | 1.63 | 0 of 9 |
| KSSQSWLYESRNKNIVA | WASTRIS | QQYHRLPLS | ND ND ND | ND | 0 of 9 |
| KSSQSVLYESINKNSVC | WASTRES | QQWHRLPLS | ND ND ND | ND | 1 of 9 (4.76) |
| KSSQSVLYESRNKNSVA | WASTGES | QQYHREPLS | ND ND ND | ND | 0 of 9 |

A selection of 5 entries from above:

CDR-L1,CDR-L2,CDR-L3,log10 Kd (nM) by replicate,"mean, log10 nM",empty controls
KSSQSVLYESRNKNSVI,WASTRES,QQYHRLPCW,5.46 ND ND,5.46,4 of 9 (4.05)
KSSQSVLYESRNKNSVA,MASTMES,QQYPRLPLS,ND ND ND,ND,1 of 9 (2.78)
KSSQSVLYESRNQASVA,WASTRES,QQYHRLPCS,3.97 ND ND,3.97,2 of 9 (3.13)
KGSSSVLYESRNDNSVA,WASTRES,QQYHRLPLS,0.93 1.28 1.27,1.16,3 of 9 (4.10)
KSSQSVLYESRNKNSVA,WASTGES,QQYHREPLS,ND ND ND,ND,0 of 9